Measured values from PubChem BioAssay AID652245 (The Scripps Research Institute Molecular Screening Center, 2013).
Only a part is listed here, and it is no random draw. Calls of active or inactive are those of the source.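 Rule for the calls: active = inhibition above the primary screen's cutoff, the mean inhibition of all screened compounds plus 3 SD (cut at about 13% in these data); inactive = the rest.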

Protein sequences, listed by entry. Tags and fused reporters are not part of them. Residues count along the entry.
UniProt O60755, 1-299 limits assumed: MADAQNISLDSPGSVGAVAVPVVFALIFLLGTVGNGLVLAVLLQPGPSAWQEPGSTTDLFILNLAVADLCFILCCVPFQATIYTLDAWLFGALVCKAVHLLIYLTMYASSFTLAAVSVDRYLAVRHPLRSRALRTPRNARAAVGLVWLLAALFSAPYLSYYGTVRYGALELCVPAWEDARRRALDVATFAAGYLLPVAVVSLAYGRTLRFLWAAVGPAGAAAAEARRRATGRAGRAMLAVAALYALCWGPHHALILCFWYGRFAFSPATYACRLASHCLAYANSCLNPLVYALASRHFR

molecular target: Galanin receptor type 3 (Homo sapiens) (UniProt O60755); assay: blockers of human galanin receptor 3 – cell-based, fluorescence, triplicate, confirmation (AID 652245); settings: HEK293 GalR3 CNG cAMP biosensor, membrane potential fluorescence; at 3 µM; stronger effect = higher value; challenged with forskolin and galanin at EC90; galR3 fused to GalR1 carboxy tail;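 note: 0% = forskolin plus galanin and 100% = forskolin alone with DMSO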

Compound	inhibition
O=[N+]([O-])c1cc([N+](=O)[O-])c(Nc2ccc(Cl)cc2)c([N+](=O)[O-])c1	active: 77.1%
CCN(CC)CCCOC(=O)C(O)(c1ccccc1)c1ccccc1	inactive: 10.6%
